Reference: patent EP2975056A1 (NOVO NORDISK A/S, dated 2016)

By UniProt entry, the sequences of proteins in these tests, tags left out. Chains listed by the source or under a name are the forms on record and can include a tag or linker. Residues count along the entry.
UniProt Q9NP99, 21-205 limits assumed, form in doubt: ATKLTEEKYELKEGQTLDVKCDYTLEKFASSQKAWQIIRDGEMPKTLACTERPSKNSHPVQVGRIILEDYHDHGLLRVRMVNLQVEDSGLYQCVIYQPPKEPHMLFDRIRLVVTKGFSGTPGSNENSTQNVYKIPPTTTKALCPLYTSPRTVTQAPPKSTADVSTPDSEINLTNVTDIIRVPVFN

These binders were tested against T1, human TREM-1-Fc (human, UniProt Q9NP99 21-205, limits assumed) (assay: binding kinetics, method not stated in the example).
T1 construct: not shown: Fc part of the fusion

Kd [nM] | koff [s⁻¹] | kon [M⁻¹ s⁻¹] | Binder
0.2 | 0.0006 | 4e+06 | mAb 0317 (mAb 0170 variant, LC E27Q, E97S) (antibody, human IgG4 S228P, kappa, V domains shown) VH: EVQLVESGGGLVQPGGSLKLSCAASGFTFSTYAMHWVRQASGKGLEWVGRIRTKSSNYATYYAASVKGRFTISRDDSKNTAYLQMNSLKTEDTAVYYCTRDMGIRRQFAYWGQGTLVTVSS VL: DIVLTQSPDSLAVSLGERATINCRASQSVDTFDYSFLHWYQQKPGQPPKLLIYRASNLESGVPDRFSGSGSGTDFTLTISSLQAEDVAVYYCQQSNSDPYTFGQGTKLEIKR
0.2 | 0.0006 | 4e+06 | mAb 0319 (mAb 0170 variant, LC E97S) (antibody, human IgG4 S228P, kappa, V domains shown) VH: EVQLVESGGGLVQPGGSLKLSCAASGFTFSTYAMHWVRQASGKGLEWVGRIRTKSSNYATYYAASVKGRFTISRDDSKNTAYLQMNSLKTEDTAVYYCTRDMGIRRQFAYWGQGTLVTVSS VL: DIVLTQSPDSLAVSLGERATINCRASESVDTFDYSFLHWYQQKPGQPPKLLIYRASNLESGVPDRFSGSGSGTDFTLTISSLQAEDVAVYYCQQSNSDPYTFGQGTKLEIKR
0.3 | 0.0006 | 2e+06 | mAb 0323 (mAb 0170 variant, LC F32S) (antibody, human IgG4 S228P, kappa, V domains shown) VH: EVQLVESGGGLVQPGGSLKLSCAASGFTFSTYAMHWVRQASGKGLEWVGRIRTKSSNYATYYAASVKGRFTISRDDSKNTAYLQMNSLKTEDTAVYYCTRDMGIRRQFAYWGQGTLVTVSS VL: DIVLTQSPDSLAVSLGERATINCRASESVDTSDYSFLHWYQQKPGQPPKLLIYRASNLESGVPDRFSGSGSGTDFTLTISSLQAEDVAVYYCQQSNEDPYTFGQGTKLEIKR
0.2 | 0.0008 | 4e+06 | mAb 0318 (mAb 0170 variant, LC E27Q, E97Q) (antibody, human IgG4 S228P, kappa, V domains shown, also called ID; No. 5) VH: EVQLVESGGGLVQPGGSLKLSCAASGFTFSTYAMHWVRQASGKGLEWVGRIRTKSSNYATYYAASVKGRFTISRDDSKNTAYLQMNSLKTEDTAVYYCTRDMGIRRQFAYWGQGTLVTVSS VL: DIVLTQSPDSLAVSLGERATINCRASQSVDTFDYSFLHWYQQKPGQPPKLLIYRASNLESGVPDRFSGSGSGTDFTLTISSLQAEDVAVYYCQQSNQDPYTFGQGTKLEIKR
0.08 | 0.0003 | 4e+06 | mAb 0325 (mAb 0170 variant, HC N57S) (antibody, human IgG4 S228P, kappa, V domains shown) VH: EVQLVESGGGLVQPGGSLKLSCAASGFTFSTYAMHWVRQASGKGLEWVGRIRTKSSSYATYYAASVKGRFTISRDDSKNTAYLQMNSLKTEDTAVYYCTRDMGIRRQFAYWGQGTLVTVSS VL: DIVLTQSPDSLAVSLGERATINCRASESVDTFDYSFLHWYQQKPGQPPKLLIYRASNLESGVPDRFSGSGSGTDFTLTISSLQAEDVAVYYCQQSNEDPYTFGQGTKLEIKR
0.2 | 0.0007 | 3e+06 | mAb 0326 (mAb 0170 variant, HC A59Y, N57S) (antibody, human IgG4 S228P, kappa, V domains shown) VH: EVQLVESGGGLVQPGGSLKLSCAASGFTFSTYAMHWVRQASGKGLEWVGRIRTKSSSYYTYYAASVKGRFTISRDDSKNTAYLQMNSLKTEDTAVYYCTRDMGIRRQFAYWGQGTLVTVSS VL: DIVLTQSPDSLAVSLGERATINCRASESVDTFDYSFLHWYQQKPGQPPKLLIYRASNLESGVPDRFSGSGSGTDFTLTISSLQAEDVAVYYCQQSNEDPYTFGQGTKLEIKR
0.2 | 0.0006 | 3e+06 | mAb 0321 (mAb 0170 variant, LC E27Q) (antibody, human IgG4 S228P, kappa, V domains shown) VH: EVQLVESGGGLVQPGGSLKLSCAASGFTFSTYAMHWVRQASGKGLEWVGRIRTKSSNYATYYAASVKGRFTISRDDSKNTAYLQMNSLKTEDTAVYYCTRDMGIRRQFAYWGQGTLVTVSS VL: DIVLTQSPDSLAVSLGERATINCRASQSVDTFDYSFLHWYQQKPGQPPKLLIYRASNLESGVPDRFSGSGSGTDFTLTISSLQAEDVAVYYCQQSNEDPYTFGQGTKLEIKR
0.1 | 0.0003 | 3e+06 | mAb 0322 (mAb 0170 variant, LC F32A) (antibody, human IgG4 S228P, kappa, V domains shown, also called ID; NO 9) VH: EVQLVESGGGLVQPGGSLKLSCAASGFTFSTYAMHWVRQASGKGLEWVGRIRTKSSNYATYYAASVKGRFTISRDDSKNTAYLQMNSLKTEDTAVYYCTRDMGIRRQFAYWGQGTLVTVSS VL: DIVLTQSPDSLAVSLGERATINCRASESVDTADYSFLHWYQQKPGQPPKLLIYRASNLESGVPDRFSGSGSGTDFTLTISSLQAEDVAVYYCQQSNEDPYTFGQGTKLEIKR
0.2 | 0.0007 | 4e+06 | mAb 0320 (mAb 0170 variant, LC E97Q) (antibody, human IgG4 S228P, kappa, V domains shown) VH: EVQLVESGGGLVQPGGSLKLSCAASGFTFSTYAMHWVRQASGKGLEWVGRIRTKSSNYATYYAASVKGRFTISRDDSKNTAYLQMNSLKTEDTAVYYCTRDMGIRRQFAYWGQGTLVTVSS VL: DIVLTQSPDSLAVSLGERATINCRASESVDTFDYSFLHWYQQKPGQPPKLLIYRASNLESGVPDRFSGSGSGTDFTLTISSLQAEDVAVYYCQQSNQDPYTFGQGTKLEIKR
0.3 | 0.0008 | 3e+06 | mAb 0324 (mAb 0170 variant, HC A59Y) (antibody, human IgG4 S228P, kappa, V domains shown) VH: EVQLVESGGGLVQPGGSLKLSCAASGFTFSTYAMHWVRQASGKGLEWVGRIRTKSSNYYTYYAASVKGRFTISRDDSKNTAYLQMNSLKTEDTAVYYCTRDMGIRRQFAYWGQGTLVTVSS VL: DIVLTQSPDSLAVSLGERATINCRASESVDTFDYSFLHWYQQKPGQPPKLLIYRASNLESGVPDRFSGSGSGTDFTLTISSLQAEDVAVYYCQQSNEDPYTFGQGTKLEIKR
